In patent publication US11459547B2, “Method for producing osteoblast cluster using human iPS cells” (priority 2017, dated 2022):

Tested on: human iPS cell embryoid bodies (409B2)
Experiment: Mesoderm induction ratio by immunofluorescent staining of Brachyury
Type: cell-based
Settings: embryoid body formation 1 day; mesoderm differentiation induction medium with or free of CHIR99021 or cyclopamine; the label names the compound(s) present; 17% in the absence of both
Method: The immunostaining was pertained using: anti-Brachyury polyclonal antibody (AF2085, R&D SYSTEMS) as a primary antibody; Alexa Fluor594-labeled anti-goat IgG antibody (Thermo Fisher Scientific) as a secondary antibody; and Hoechst 33258 (Thermo Fisher Scientific) for nuclear staining.
In addition, a mesoderm induction ratio in the case where the embryoid bodies were cultured for 1 day in a mesoderm differentiation induction medium free of CHIR99021 or cyclopamine was investigated using immunofluorescent staining of Brachyury. The mesoderm induction ratio was determined from the ratio of Brachyury-positive embryoid bodies in all embryoid bodies present in an immunostaining photographic image.

## CC1=C2C[C@H]3[C@@H](CC=C4C[C@@H](O)CC[C@@]43C)[C@@H]2CC[C@]12O[C@@H]1C[C@H](C)CN[C@H]1[C@H]2C [cyclopamine]
  mesoderm induction ratio (ratio of Brachyury-positive embryoid bodies in all embryoid bodies): 40%
